Measured values from ChEMBL document CHEMBL3399946, “Structure-activity relationships of substituted 1H-indole-2-carboxamides as CB1 receptor allosteric modulators” (Bioorg Med Chem, 2015).

Sequences of proteins named here, by UniProt entry; tags and fusion partners are left off.
UniProt P34972, whole entry: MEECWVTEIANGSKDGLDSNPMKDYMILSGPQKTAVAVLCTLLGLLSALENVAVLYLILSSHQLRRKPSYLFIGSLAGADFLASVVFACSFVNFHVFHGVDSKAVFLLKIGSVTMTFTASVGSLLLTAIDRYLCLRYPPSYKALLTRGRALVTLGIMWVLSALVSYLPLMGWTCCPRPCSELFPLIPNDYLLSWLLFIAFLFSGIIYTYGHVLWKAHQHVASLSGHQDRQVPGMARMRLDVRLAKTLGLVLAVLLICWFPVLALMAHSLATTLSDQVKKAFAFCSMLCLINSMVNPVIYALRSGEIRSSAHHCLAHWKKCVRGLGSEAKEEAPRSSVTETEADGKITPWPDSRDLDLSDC
UniProt P21554, whole entry: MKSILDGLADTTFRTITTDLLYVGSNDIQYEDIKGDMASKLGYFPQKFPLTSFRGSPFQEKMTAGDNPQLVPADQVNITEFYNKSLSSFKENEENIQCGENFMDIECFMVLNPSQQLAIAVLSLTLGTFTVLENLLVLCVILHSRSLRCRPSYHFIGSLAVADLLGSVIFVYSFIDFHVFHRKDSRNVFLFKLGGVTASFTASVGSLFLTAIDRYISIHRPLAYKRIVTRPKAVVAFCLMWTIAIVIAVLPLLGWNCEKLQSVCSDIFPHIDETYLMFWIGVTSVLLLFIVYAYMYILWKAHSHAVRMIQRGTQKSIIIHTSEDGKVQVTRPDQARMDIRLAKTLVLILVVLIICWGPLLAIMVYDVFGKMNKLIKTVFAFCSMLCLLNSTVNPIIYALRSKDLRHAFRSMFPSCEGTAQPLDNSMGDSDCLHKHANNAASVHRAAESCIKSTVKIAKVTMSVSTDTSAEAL

How the values were obtained:
[1] = molecular target: Cannabinoid receptor 2 (Homo sapiens) (UniProt P34972); experiment: Agonist activity at human CB2 receptor expressed in CHO-RD-HGA16 cells at 10 uM after 15 mins by FLIPR assay relative to CP55940; assay type: cell-based
How it was run: (§1)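 Stably transfected CHO-RD-HGA16 cells (human CB1, or CB2 for line 2) seeded the day before (CB1 25,000, CB2 30,000 cells/well), cultured overnight at 37°C, 5% CO2. Loaded 45 min at 37°C with Calcium 5 dye in HBSS/20 mM HEPES/2.5 mM probenecid, pH 7.4.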

[2] = molecular target: Cannabinoid receptor 1 (Homo sapiens, UniProt P21554); experiment: Agonist activity at human CB1 receptor expressed in CHO-RD-HGA16 cells at 10 uM after 15 mins by FLIPR assay relative to CP55940; assay type: cell-based; how it was run: as §1

CCc1c(C(=O)NCCc2cccc(N(C)C)c2)[nH]c2ccc(Cl)cc12
Activity [1]: < 30%
Activity [2]: < 30%
